# Only a part of the results on these compounds is given; other tests are left out.
# Sequences of proteins named here, by UniProt entry; tags and fusion partners are left off.
# UniProt P41146, whole entry: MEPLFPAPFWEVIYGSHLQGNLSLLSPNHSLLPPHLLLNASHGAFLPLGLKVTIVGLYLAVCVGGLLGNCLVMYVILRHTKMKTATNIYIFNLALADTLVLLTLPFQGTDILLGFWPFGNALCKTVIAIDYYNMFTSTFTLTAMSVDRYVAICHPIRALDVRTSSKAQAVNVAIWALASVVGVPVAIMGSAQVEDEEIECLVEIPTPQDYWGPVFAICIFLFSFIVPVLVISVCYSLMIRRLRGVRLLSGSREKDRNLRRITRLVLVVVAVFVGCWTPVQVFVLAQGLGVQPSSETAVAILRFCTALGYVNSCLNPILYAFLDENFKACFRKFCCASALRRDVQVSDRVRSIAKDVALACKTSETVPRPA
# UniProt P41143, whole entry: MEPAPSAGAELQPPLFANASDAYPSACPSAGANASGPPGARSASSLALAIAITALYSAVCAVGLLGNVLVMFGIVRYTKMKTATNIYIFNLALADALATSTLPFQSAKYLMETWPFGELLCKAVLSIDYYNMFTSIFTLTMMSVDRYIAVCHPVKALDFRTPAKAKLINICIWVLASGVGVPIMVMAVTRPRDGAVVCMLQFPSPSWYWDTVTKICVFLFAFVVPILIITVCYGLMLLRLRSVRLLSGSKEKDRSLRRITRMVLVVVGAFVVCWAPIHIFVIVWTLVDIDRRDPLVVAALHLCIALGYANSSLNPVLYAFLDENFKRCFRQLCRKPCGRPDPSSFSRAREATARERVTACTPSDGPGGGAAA
# UniProt P41145, whole entry: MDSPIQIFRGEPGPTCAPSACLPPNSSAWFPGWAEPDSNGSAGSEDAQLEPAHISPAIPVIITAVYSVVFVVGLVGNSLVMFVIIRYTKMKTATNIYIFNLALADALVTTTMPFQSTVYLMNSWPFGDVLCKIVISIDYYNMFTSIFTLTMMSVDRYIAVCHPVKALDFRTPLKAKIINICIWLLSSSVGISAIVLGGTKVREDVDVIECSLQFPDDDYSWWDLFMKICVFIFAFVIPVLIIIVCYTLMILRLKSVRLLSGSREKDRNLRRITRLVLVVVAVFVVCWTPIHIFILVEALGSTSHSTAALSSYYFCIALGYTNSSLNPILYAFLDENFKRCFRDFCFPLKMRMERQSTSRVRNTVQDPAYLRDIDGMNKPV
# Assays:
# [1] = target: T1, human opioid receptor-like (ORL-1) (Homo sapiens, UniProt P41146); assay: In vitro ORL-1 receptor binding assay ([3H]-nociceptin displacement); conditions: read-out: Ki [Average ± Std Deviation] ORL-1; membranes from recombinant HEK-293 cells; 0.1 nM [3H]-nociceptin
# [2] = target: T1, human opioid receptor-like (ORL-1); assay: In vitro ORL-1 receptor functional assay ([35S]GTPγS binding); conditions: for EC50: read-out: GTPγS ORL-1 EC50 [mean ± SEM], [35S]GTPγS, HEK-293 membranes; for GTPγS ORL-1 Emax [mean ± SEM]: relative to the effect elicited by nociceptin
# delta opioid receptor = delta opioid receptor (Homo sapiens, UniProt P41143); assay: In vitro delta-opioid receptor binding assay ([3H]-Naltrindole displacement); conditions: read-out: Ki [Average ± Std Deviation] Opioid Receptor Delta; CHO-K1 membranes; 0.2 nM [3H]-Naltrindole
# kappa opioid receptor [3] = target: T2, kappa opioid receptor (Homo sapiens, UniProt P41145); assay: In vitro kappa-opioid receptor binding assay ([3H]-U69,593 displacement); conditions: read-out: Ki [Average ± Std Deviation] Opioid Receptor Kappa, HEK-293 membranes
# kappa opioid receptor [4] = target: T2, kappa opioid receptor; assay: In vitro kappa-opioid receptor functional assay ([35S]GTPγS); conditions: read-out: GTPγS Opioid Receptor EC50 Kappa [mean ± SEM]
SMILES,Ki [1],EC50 [2],GTPγS ORL-1 Emax [mean ± SEM] [2],Ki (delta opioid receptor),Ki (kappa opioid receptor [3]),EC50 (kappa opioid receptor [4])
CC(=O)N(c1ccccc1NCC(=O)O)[C@H]1C[C@H]2CCC[C@@H](C1)N2[C@H]1C[C@@H]2CCC[C@@H](C2)C1,263 nM,683 nM,38.25 ± 3.07%,> 20000 nM,,
C[C@@H]1C[C@@H]2C[C@H](C1)C[C@@H](N1[C@@H]3CCC[C@H]1C[C@@H](N(C(=O)C(=O)O)c1ccccc1NC(=O)C(=O)O)C3)C2,9.14 nM,8.1 nM,31 ± 0.58%,> 20000 nM,289 nM,> 20000 nM
O=C(O)C1CCCN1C(=O)N(c1ccccc1)[C@H]1C[C@H]2CCC[C@@H](C1)N2[C@H]1C[C@@H]2CCC[C@@H](C2)C1 (some centres unmarked),18.2 nM,> 20000 nM,0.5 ± 0.5%,,,
CC(=O)N(c1ccccc1NCC(=O)O)[C@H]1C[C@H]2CCC[C@@H](C1)N2C1CCCCCCC1,> 20000 nM,,,,,
O=C(O)[C@@H]1CCCN1C(=O)N(c1ccccc1)[C@H]1C[C@H]2CCC[C@@H](C1)N2[C@H]1C[C@@H]2CCC[C@@H](C2)C1,67.6 nM,> 20000 nM,,,,
O=C(O)[C@@H]1CCN(C(=O)N(c2ccccc2)[C@H]2C[C@H]3CCC[C@@H](C2)N3[C@H]2C[C@@H]3CCC[C@@H](C3)C2)C1,780 nM,,,,,
O=C(O)[C@H]1CCCN1C(=O)N(c1ccccc1)[C@H]1C[C@H]2CCC[C@@H](C1)N2[C@H]1C[C@@H]2CCC[C@@H](C2)C1,32.6 nM,> 20000 nM,,,,
O=C(O)CC(=O)N(c1ccccc1)C1CCN(C2CCCCCCC2)CC1,5610 nM,,,,,
O=C(O)C(=O)Nc1ccccc1N(C(=O)C(=O)O)[C@H]1C[C@H]2CCC[C@@H](C1)N2[C@H]1C[C@@H]2CCC[C@@H](C2)C1,21.5 nM,12.4 nM,23 ± 2.68%,,,
